Laboratory results from ChEMBL document CHEMBL3351332, “Diarylureas as allosteric modulators of the cannabinoid CB1 receptor: structure-activity relationship studies on 1-(4-chlorophenyl)-3-{3-[6-(pyrrolidin-1-yl)pyridin-2-yl]phenyl}urea (PSNCBAM-1)” (J Med Chem, 2014).
pIC50: −log10 of the molar value.

Amino acid sequences for entries named in this document (tags omitted).
UniProt P21554, whole entry: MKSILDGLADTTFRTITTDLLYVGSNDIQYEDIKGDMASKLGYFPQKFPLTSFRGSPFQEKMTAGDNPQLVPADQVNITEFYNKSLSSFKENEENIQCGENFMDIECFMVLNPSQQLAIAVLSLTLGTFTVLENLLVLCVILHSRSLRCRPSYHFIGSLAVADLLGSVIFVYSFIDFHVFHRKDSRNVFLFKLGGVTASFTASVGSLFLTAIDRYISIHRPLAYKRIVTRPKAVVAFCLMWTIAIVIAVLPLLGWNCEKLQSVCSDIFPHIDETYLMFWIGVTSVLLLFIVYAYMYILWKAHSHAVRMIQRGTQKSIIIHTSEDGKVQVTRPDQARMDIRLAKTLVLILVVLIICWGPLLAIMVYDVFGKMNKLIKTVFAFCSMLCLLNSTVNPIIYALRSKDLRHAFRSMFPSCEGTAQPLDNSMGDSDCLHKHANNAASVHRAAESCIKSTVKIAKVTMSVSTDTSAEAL

Target: Cannabinoid receptor 1 (Homo sapiens, UniProt P21554)
Assay: Antagonist activity at human CB1 receptor stably expressed in RD-HGA16 cells assessed as inhibition of CP55,940-induced calcium mobilization after 15 mins by FLIPR assay
Type: functional, cell-based

Compound: O=C(Nc1ccc(Cl)cc1)Nc1cccc(-c2cccc(N3CCCC3)n2)c1
- pIC50: 7.49
